# Results taken from PubChem BioAssay AID1259334 (Broad Institute, 2017).
# Some of these compounds have results that are not shown, active ones among them. Calls of active or inactive are those of the source. Rule as the data show it: active = AC50 below about 11 µM.
# System: B cell line, TNFa signaling counterscreen reporter
# Assay: TNFa pathway inhibition counter-screen, B-lineage cells – dose response (AID 1259334);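 also: cells stimulated with TNFa after compound preincubation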
smiles,measurement,value
C=C(C)C#CC(O)(C(=O)OC1CCN(C)CC1)c1ccccc1 (stereo unspecified),AC50,inactive: > 20 µM
